B1: IFNβ: cytokine (protein, UniProt P01574 22-187, looked up)
Interferon beta: MSYNLLGFLQRSSNFQCQKLLWQLNGRLEYCLKDRMNFDIPEEIKQLQQFQKEDAALTIYEMLQNIFAIFRQDSSSTGWNETIVENLLANVYHQINHLKTVLEEKLEKEDFTRGKLMSSLHLKRYYGRILHYLKAKEYSHCAWTIVRVEILRNFYFINRLTGYLRN
B2: IL-3: cytokine (protein, UniProt P08700 20-152, looked up)
Interleukin-3: APMTQTTPLKTSWVNCSNMIDEIITHLKQPPLPLLDFNNLNGEDQDILMENNLRRPNLEAFNRAVKSLQNASAIESILKNLLPCLPLATAAPTRHPIHIKDGDWNEFRRKLTFYLKTLENAQAQQTTLSLAIF

Test system: DC2.4 cells and mouse GM-CSF-dependent BMDC
Assay: Influence of cytokines on expression of cell surface HSP90 (FACS with 6H8)
Format: cell-based
Method: In view of the possibility that cytokines are variation factors for the expression of cell surface HSP90, the influences of various cytokines on the expression of cell surface HSP90 were examined as described below. DC2.4 cells and mouse GM-CSF-dependent BMDC were incubated in the presence (bold lines in FIG. 5A) or in the absence (thin lines in FIG. 5A) of IFNα (500 U/ml), IFNβ (500 U/ml), or IFNγ (50 ng/ml) with 5% CO2 at 37° C. for 24 hours, and cell surface HSP90 stained using the 6H8 antibody was analyzed by FACS. As a result, it was confirmed that the expression of cell surface HSP90 was increased with the addition of IFN α, β, and γ to the culture broth (FIG. 5A). The grey areas show the results of staining with PE-Cy5 alone as negative controls.
The solid bars indicate the MFI for cells treated with the cytokines in FIG. 5A; the grey bars indicate the MFI for cells incubated in the presence of a low concentration of IFNα (100 U/ml), IFNβ (100 U/ml), or IFNγ (10 ng/ml). The open bars indicate the results for the MFI incubated in the absence of the cytokines as negative controls.
The solid bars indicate the MFI for BMDC incubated in the presence of high concentrations of IFNs (as in FIG. 5B) or other cytokines (100 ng/ml); the grey bars indicate the MFI for BMDC incubated in the presence of low concentrations of IFNs (as in FIG. 5B) or other cytokines (10 ng/ml). […]

| Molecule | expression of cell surface HSP90 after IFN treatment (DC2.4 and mouse GM-CSF-dependent BMDC, 24 hours, IFNα 500 U/ml, IFNβ 500 U/ml, IFNγ 50 ng/ml) | MFI of cell surface HSP90 after cytokine treatment versus negative control (BMDC, cytokines 100 ng/ml or 10 ng/ml) |
| --- | --- | --- |
| B1 | increased | – |
| B2 | – | no significant difference from the negative control |
